Earlier results on one molecule are cited in patent US20240382467A1, “COMPOSITIONS AND METHODS FOR TREATING AND/OR PREVENTING LUNG INJURY” (published 2024).

The conditions of this data set: cited from earlier work.

In the case of `N=C1C(=O)NC(=O)c2cc(-c3ccccc3)sc21`, the plasma levels (at the selected doses (5 or 10 mg/kg IP, Example 14)) was 1 µM. Moreover, the plasma half-life result (in vivo) was “long”.
